Two substances from US20100029554A1, “Composition and Methods for Treatment of Congestive Heart Failure” (Amylin Pharmaceuticals, Inc., priority 2006, published 2010) can be followed below.

This experiment has as its target T1, GLP-1 receptors (RINm5f cell membranes) (Rattus norvegicus, UniProt P32301).
T1 construct: RINm5f cells expressing endogenous GLP-1 receptors; endogenous in cells; host or cells: RINm5f cell membranes
T1 sequence (P32301 22-463): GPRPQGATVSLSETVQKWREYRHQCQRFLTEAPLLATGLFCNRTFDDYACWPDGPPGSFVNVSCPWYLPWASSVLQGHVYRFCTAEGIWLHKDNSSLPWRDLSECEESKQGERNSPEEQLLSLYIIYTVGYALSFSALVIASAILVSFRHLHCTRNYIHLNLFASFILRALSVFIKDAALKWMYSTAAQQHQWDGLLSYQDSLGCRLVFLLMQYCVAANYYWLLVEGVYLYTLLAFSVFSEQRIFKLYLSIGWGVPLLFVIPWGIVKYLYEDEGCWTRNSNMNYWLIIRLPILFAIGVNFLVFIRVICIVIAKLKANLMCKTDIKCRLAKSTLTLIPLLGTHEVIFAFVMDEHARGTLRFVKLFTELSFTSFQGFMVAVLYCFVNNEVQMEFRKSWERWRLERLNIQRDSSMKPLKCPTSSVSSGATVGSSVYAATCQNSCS
The experiment in a line: Receptor binding assay, RBA GLP (RIN). The note with it: [125I] human GLP-1 displacement. The text has this: The well contents are harvested onto 96 well glass fiber plates using a Perkin Elmer plate harvestor. Dried glass fiber plates are combined with scintillant and counted on a Perkin Elmer scintillation counter.

As to “GLP-1-(7-37)-GG-(S)-2,6-diamino-1-(thiazolidin-2-cyano-3-y1)hexan-1-one amide (HAEGTFTSDVSSYLEGQAAKEFIAWLVKGRGGG; C-terminal cyano DPP4 inhibitor moiety, amide) [Cmpd 4845]”, the IC50 came to 0.1 nM.

“GLP-1-(7-37)-GG(S)-2,6-diamino-1-(thiazolidin-3-y1)hexan-1-one amide (HAEGTFTSDVSSYLEGQAAKEFIAWLVKGRGGG; C-terminal DPP4 inhibitor moiety, amide) [Cmpd 4844]” came in with an IC50 of 0.087 nM.
